# Apparent affinities of Ab-95 variants for a coronavirus HR2 peptide

Values reported by Engelhart et al. 2022, doi:10.1038/s41597-022-01779-4 (FLAb copy).

Target: peptide PDVDLGDISGINAS, taken from heptad repeat 2 (HR2) of SARS-CoV-2 spike.

Parent: Ab-95, a human scFv built as VH, a 15-residue (Gly4Ser)3 linker, VL. Only the CDRs of the light chain vary.
VH: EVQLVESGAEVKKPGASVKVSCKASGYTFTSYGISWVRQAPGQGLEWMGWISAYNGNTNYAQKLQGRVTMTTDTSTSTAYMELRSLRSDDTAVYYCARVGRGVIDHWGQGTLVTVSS
VL: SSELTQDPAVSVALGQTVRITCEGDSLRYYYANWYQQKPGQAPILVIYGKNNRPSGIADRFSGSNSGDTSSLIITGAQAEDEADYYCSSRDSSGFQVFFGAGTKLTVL

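Phage display of a naive human antibody library on the peptide gave the parent. Library AAYL52 holds single substitutions and randomly drawn double and triple substitutions in the CDRs. The scFvs were displayed on barcoded MATa yeast, the peptide on MATalpha yeast. Mating (16 h, 30 °C) was followed by selection of diploids and sequencing of their barcodes. Scores were corrected for input abundance and mapped to Kd with protein pairs of known affinity run in the same pool. Mating was done three times.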

Positions count from residue 1 of the parent VL; G24Y puts Y in place of G. Numbers give log10(Kd / nM), so 0 is 1 nM and 3 is 1 µM. Smaller is tighter. Where no diploid with the target was found in that replicate, the entry reads "n.d.": below detection, most likely a poor binder, though not proof of it. Nonspecific signal, from three strains lacking the peptide, appeared in 28% of pairings of library AAYL52, centred on 3.91 (5% of these signals below 2.90); values are not corrected for it. For each scFv, signals with the empty controls are counted beside the result, with their mean in brackets.

changes	log10 Kd (nM) by replicate	control signals
G24Y/L27F/S88Y	n.d. / 4.75 / n.d.	6 of 9 (3.99)
Y30P/F95T/V97Y	1.82 / 1.58 / 1.68	1 of 9 (3.21)
E23M/A32G/G94K	n.d. / n.d. / n.d.	1 of 9 (3.46)
L27V/Y31E/P54N	2.85 / 1.95 / 1.71	3 of 9 (4.11)
E23R/A32E/K50S	n.d. / n.d. / n.d.	1 of 9 (3.25)
Y29K/Q96D	3.05 / 3.04 / 3.13	1 of 9 (3.24)
Y31W/A32K/S55W	4.70 / 4.24 / 4.64	4 of 9 (4.04)
G49F/P54S/S55E	n.d. / 5.41 / 2.65	2 of 9 (3.79)
Y30A/N52W/D91T	1.91 / 1.74 / 1.13	4 of 9 (4.66)
G24E/S88E/S89Y	n.d. / n.d. / n.d.	3 of 9 (3.89)
R53T/P54G/D91M	2.70 / 3.03 / 2.91	5 of 9 (3.80)
A32G/N33K/N52Q	n.d. / n.d. / n.d.	1 of 9 (3.49)
Y29D/A32K/V97N	2.74 / 3.29 / 2.25	5 of 9 (4.22)
D25H/N33K/V97A	2.67 / 3.17 / 2.74	0 of 9
G24D/N33P/S55R	3.10 / n.d. / 3.09	1 of 9 (3.38)
Y29N/G49T/R53H	3.58 / 5.89 / n.d.	5 of 9 (3.73)
D25I/R90I/V97R	4.02 / n.d. / n.d.	4 of 9 (3.97)
Y29C/S88L/D91S	n.d. / n.d. / n.d.	3 of 9 (3.80)
Y30T/N33L/V97L	n.d. / 3.48 / 3.21	2 of 9 (4.66)
E23S/R53S/S89G	n.d. / 3.06 / 2.83	1 of 9 (4.05)
S26T/Y29M/N52W	3.27 / 4.03 / 3.10	0 of 9
Y31W/G49F/S92L	n.d. / 3.48 / n.d.	3 of 9 (4.31)
L27G/P54Y/F98G	5.31 / 4.73 / 4.28	5 of 9 (3.85)
Y30D/S88L/R90G	n.d. / 5.30 / 3.00	2 of 9 (4.33)
N33G/K50S/F98M	3.35 / 3.13 / 4.25	1 of 9 (4.91)
A32Y/R90E/V97R	3.91 / n.d. / n.d.	1 of 9 (3.77)
R28Y/Y29S/N51P	3.43 / n.d. / n.d.	6 of 9 (4.02)
L27R/Y31P/S89P	n.d. / n.d. / 2.35	1 of 9 (3.92)
L27I/N52W/F95P	3.61 / n.d. / 4.37	2 of 9 (4.44)
A32S/G49I/F95V	n.d. / n.d. / n.d.	0 of 9
N52C/S92N/S93L	n.d. / n.d. / n.d.	1 of 9 (5.22)
D91I/Q96F/V97F	3.07 / 2.11 / 2.32	0 of 9
S26Q/R90D/Q96G	3.37 / 3.56 / 3.13	2 of 9 (3.33)
N33C/S88A/F98E	n.d. / n.d. / n.d.	1 of 9 (4.19)
L27P/A32K/N33S	4.49 / 4.00 / 3.58	4 of 9 (4.05)
E23F/L27T/Q96A	n.d. / 3.74 / 4.22	3 of 9 (3.57)
G24Q/R28Q/V97F	4.48 / 5.58 / 3.25	5 of 9 (3.50)
G49A/K50D/S92F	2.54 / 4.22 / 2.94	1 of 9 (3.67)

The first 4 variants above that were never detected:

changes	log10 Kd (nM) by replicate	control signals
E23M/A32G/G94K	n.d. / n.d. / n.d.	1 of 9 (3.46)
E23R/A32E/K50S	n.d. / n.d. / n.d.	1 of 9 (3.25)
G24E/S88E/S89Y	n.d. / n.d. / n.d.	3 of 9 (3.89)
A32G/N33K/N52Q	n.d. / n.d. / n.d.	1 of 9 (3.49)